# According to PubChem BioAssay AID1259422 (The Scripps Research Institute Molecular Screening Center, 2018):
# The list shows a part of the results, in another mix than the full data. Activity calls are given as the source filed them. Cut-off read from the data, not from the text of the source: active = inhibition above about 32%; inactive = the rest.
# Assay: TEAD-YAP interaction inhibition, primary screen, TEAD-YAP interaction inhibitor project, luminescence, HEK-TIYL cells (AID 1259422);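 note: 0% = median of test compound wells and 100% = reference inhibitor wells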
# Details: TEAD-Gal4/YAP UAS-luciferase luminescence, at 9.12 µM, active compounds read high
row,SMILES,inhibition
1,CCOC(=O)c1ccccc1OP(=O)(OCC)SCC(C)C (centres undefined),inactive: -7.33%
2,Cc1c([N+](=O)[O-])c([N+](=O)[O-])nn1CC(=O)Nc1cc(O)cc([N+](=O)[O-])c1,inactive: 5%
3,CCc1nc2c(n1)c1c(non1O)c1c2no[n+]1[O-],inactive: 2.81%
4,O=C(OC1CN2CCC1CC2)c1cccc(F)c1 (centres undefined),inactive: 1.04%
5,O=P(/N=C(/N1CCOCC1)C(Cl)(Cl)Cl)(N1CCOCC1)N1CCOCC1,inactive: 5.91%
6,O=C(COC(=O)C(O)(c1ccccc1)c1ccccc1)NCc1cccs1,inactive: -0.1%
7,CC(C)OC(=O)NC(SC#N)C(Cl)(Cl)Cl (centres undefined),inactive: 12.1%
8,N=C(N)SCC(Br)CN1C(=O)c2ccccc2C1=O (centres undefined),inactive: -1.25%
9,O=[N+]([O-])c1cc([N+](=O)[O-])c2nc(-c3ccc([N+](=O)[O-])o3)[nH]c2c1,inactive: -16.9%
10,O=C(COC(=O)C(O)(c1ccccc1)c1ccccc1)NCc1ccc2c(c1)OCO2,inactive: 8.2%
11,CCOP(=O)(NNc1ccccc1)OCC,inactive: -2.75%
12,Cn1c(SCC(=O)c2ccccc2OC(F)F)nc2ccccc21,inactive: -2.68%
13,ClCCN1CCn2c1nc1ccccc12,inactive: -10.9%
14,CC(C)NC(=O)N(Cc1ccco1)C1CCN(CCc2ccccn2)CC1,inactive: -0.82%
15,Cc1cc(NP2(=O)C=C(c3ccccc3)OC(c3ccccc3)=C2)n[nH]1,inactive: 3.58%
16,CCOP(=S)(OCC)c1cccc(C(=O)O)c1,inactive: -8.26%
17,O=[N+]([O-])c1cc([N+](=O)[O-])c(SCCNc2ccccc2)c([N+](=O)[O-])c1,inactive: 0.6%
18,CC(C)(C)C(=O)NC(Sc1ccncn1)C(Cl)(Cl)Cl (centres undefined),inactive: 1.95%
19,C/C(=N\Nc1ccc([N+](=O)[O-])cc1[N+](=O)[O-])c1cccc([N+](=O)[O-])c1,inactive: -4.23%
20,CN1C(=O)C2C(NC(=NCCN3CCOCC3)N2C)N(C)C1=O (centres undefined),inactive: 15%
21,Cc1c(Nc2ccc([N+](=O)[O-])cc2[N+](=O)[O-])cccc1[N+](=O)[O-],inactive: 0.56%
22,C[n+]1c2n(c3ccccc31)CC(Cl)CS2 (centres undefined),inactive: -2.77%
23,O=C(c1ccc2c(c1)OCO2)N(Cc1ccco1)C1CCN(CCc2ccccn2)CC1,inactive: -6.89%
24,O=[N+]([O-])c1cc(/C=N/N=C/c2cc([N+](=O)[O-])cc([N+](=O)[O-])c2O)c(O)c([N+](=O)[O-])c1,inactive: -2.09%

row,SMILES,inhibition
1,CCOP(=O)(Nc1ccc(Br)cc1)OCC,inactive: 1.27%
2,CCCCOP(=O)(OCCCC)N(CC)CC,inactive: 0.69%
3,CC(=O)N(Cc1ccco1)C1CCN(CCc2cccs2)CC1,inactive: 3.91%
4,Nc1c([N+](=O)[O-])cc(C(=O)c2cc([N+](=O)[O-])c(N)c([N+](=O)[O-])c2)cc1[N+](=O)[O-],inactive: -13.5%
5,CCOc1ccc(NC(=O)c2cc([N+](=O)[O-])cc([N+](=O)[O-])c2)c([N+](=O)[O-])c1,inactive: 0.4%
6,ClC(Cl)(Cl)C1=NP2(=NC(c3ccccc3)=N1)OCCCO2,inactive: 4.18%
7,CCN/N=C/c1c([N+](=O)[O-])cc([N+](=O)[O-])cc1[N+](=O)[O-],inactive: 2.01%
8,CC(C)OP(=O)(OC(C)C)N1CCCCC1,inactive: -0.74%
9,CCOc1ccc(S(=O)(=O)N(CCCl)CCCl)cc1,inactive: -3.09%
10,O=C(OC1CN2CCC1CC2)c1cccc(Cl)c1 (centres undefined),inactive: 14.7%
11,CCOC(=O)C(C)NC(=O)CSP(=O)(OCC)OCC (centres undefined),inactive: 14.1%
12,COC(=O)N(c1ccccc1)P1OCC(C)O1 (centres undefined),inactive: -1.25%
13,Nc1nonc1OCc1nonc1COc1nonc1N,inactive: 0.39%
14,CC(C)NC(=O)N(Cc1cccnc1)C1CCN(CCc2cccs2)CC1,inactive: -4.18%
15,O=[N+]([O-])c1ccc(N/N=C/C=C/c2ccc([N+](=O)[O-])o2)c([N+](=O)[O-])c1,inactive: 12.8%
16,COc1ccc(S(=O)(=O)N(CCCl)CCCl)cc1,inactive: -5.13%
17,COc1ccc(CCN2CCC(N(Cc3ccco3)C(=O)c3cccc(C#N)c3)CC2)cc1,inactive: 0.43%
18,Cc1ccc(NP(=O)(OCC(C)C)OCC(C)C)nc1,inactive: 4.66%
19,O=C(N/N=C/c1ccc([N+](=O)[O-])o1)c1cc([N+](=O)[O-])cc([N+](=O)[O-])c1,inactive: 4.05%
20,CCOP(=O)(Nc1cccc(F)c1)OCC,inactive: 7.04%
21,CNC(=O)c1nsnc1NCCCl,inactive: 5.25%
22,CC1Cc2ccccc2N1C(=O)COC(=O)C(O)(c1ccccc1)c1ccccc1 (centres undefined),inactive: -14.1%
23,O=P(/C=C(\Cl)c1ccccc1)(/C=C(\Cl)c1ccccc1)Nc1nncs1,inactive: -1.21%
24,CC(C)NC(=O)N(Cc1ccco1)C1CCN(CCc2cccs2)CC1,inactive: -12.5%

row,SMILES,inhibition
1,O=C(Nc1cccc(F)c1)N(Cc1ccco1)C1CCN(CCc2ccccn2)CC1,inactive: 0.04%
2,BrCC1Cn2c(nnc2-c2cccnc2)S1 (centres undefined),inactive: -1.6%
3,COc1ccc(/C=C2/C(=O)NC(=O)N(Cc3ccco3)C2=O)c(OC)c1,inactive: -1.88%
4,O=C(Nc1c(Cl)cc([N+](=O)[O-])cc1[N+](=O)[O-])c1ccc([N+](=O)[O-])cc1,active: 56%
5,COc1ccccc1OP(=O)(Nc1ccccn1)Oc1ccccc1OC,inactive: 27.9%
6,CCc1cc2c[n+](C3CCCCC3)sc2s1,inactive: -4.65%
7,CC(=O)OC1CN2CCC1C(c1ccccc1)C2 (centres undefined),inactive: 0.01%
8,O=[N+]([O-])c1cc([N+](=O)[O-])c(NCCCO)c([N+](=O)[O-])c1,inactive: -15.2%
9,C/C(=N\Nc1ccc([N+](=O)[O-])cc1[N+](=O)[O-])c1ccc([N+](=O)[O-])cc1,inactive: 10.8%
10,O=C(Nc1cccc(F)c1)N(Cc1ccco1)C1CCN(CCc2cccs2)CC1,inactive: -1.95%
11,O=C(COc1ccccc1[N+](=O)[O-])N/N=C/c1cc([N+](=O)[O-])cc([N+](=O)[O-])c1O,inactive: -6.68%
12,O=C(COC(=O)C(O)(c1ccccc1)c1ccccc1)NCCN1C(=O)CSC1=O,inactive: 7.74%
13,O=[N+]([O-])c1ccc(NCCCCNc2ccc([N+](=O)[O-])cc2[N+](=O)[O-])c([N+](=O)[O-])c1,inactive: -2.12%
14,CCOP1(=O)O/C(=C\Cl)CN1c1ccccc1 (centres undefined),inactive: 3.7%
15,O=C(NNC1=NCC(CBr)S1)c1ccccc1 (centres undefined),inactive: 12.2%
16,CCOC(=O)c1ccc(NC2=NCC(CBr)S2)cc1 (centres undefined),inactive: -26%
17,Cc1ccc2nc(NCCCl)[nH]c2c1,inactive: -36.7%
18,CCOP(=O)(OCC)C(NC(=O)OC)C(Cl)(Cl)Cl (centres undefined),inactive: 4.48%
19,O=P1(Nc2nncs2)C=C(c2ccccc2)SC(c2ccccc2)=C1,inactive: 4.42%
20,CN(C)c1ccc(/[N+]([O-])=C/c2c([N+](=O)[O-])cc([N+](=O)[O-])cc2[N+](=O)[O-])cc1,inactive: -5.97%
21,CNc1c([N+](=O)[O-])cc([N+](=O)[O-])c2nonc12,inactive: -1.02%
22,Cc1cc(NC2=NC3C(C(=O)N(C)C(=O)N3C)N2C)n(-c2ccccc2)n1 (centres undefined),inactive: 3.87%
23,O=[N+]([O-])c1cc([N+](=O)[O-])c(N(CC(O)CO)c2ccccc2)c([N+](=O)[O-])c1 (centres undefined),inactive: 0.86%
24,CCOP(=O)(OCC)C(OC(=O)C(Cl)(Cl)Cl)=C(Cl)Cl,inactive: -1.33%

row,SMILES,inhibition
1,O=C(c1cccnc1)N(Cc1ccco1)C1CCN(CCc2ccccn2)CC1,inactive: -6.06%
2,COC(=O)C(CC(C)C)NC(=O)NP(=O)(Oc1ccccc1)Oc1ccccc1 (centres undefined),inactive: 1.59%
3,Cc1ccc([N+](=O)[O-])c2no[n+]([O-])c12,inactive: -3.09%
4,O=P1(Nc2nc3ccc(Cl)cc3s2)COc2ccccc2O1 (centres undefined),inactive: -0.47%
5,COc1ccc([N+](=O)[O-])cc1NC(=O)c1ccc([N+](=O)[O-])cc1[N+](=O)[O-],inactive: 1.74%
6,CC(=O)N(Cc1ccco1)C1CCN(CCc2ccccn2)CC1,inactive: 1.78%
7,O=c1c2cc([N+](=O)[O-])ccc2[nH]c2c([N+](=O)[O-])cc([N+](=O)[O-])cc12,inactive: 16.4%
8,O=C(c1ccco1)N(Cc1cccnc1)C1CCN(CCc2ccccn2)CC1,inactive: -1.58%
9,CC(=O)O[C@H]1CN2CCC1[C@@H](c1ccccc1)C2 (some centres undefined),inactive: 1.14%
10,CCOP(=S)(NN(CCCl)c1ccccc1)OCC,active: 40.1%
11,O=C(COC(=O)C(O)(c1ccccc1)c1ccccc1)NC12CC3CC(CC(C3)C1)C2,inactive: -9.96%
12,O=C(NNc1ccc([N+](=O)[O-])cc1[N+](=O)[O-])c1cccc([N+](=O)[O-])c1,inactive: 19.4%
13,O=C(c1cccc([N+](=O)[O-])c1)c1ccc([N+](=O)[O-])c([N+](=O)[O-])c1,inactive: -5.49%
14,ClC1CSc2nc3ccccc3n2C1 (centres undefined),inactive: 1.43%
15,O=[N+]([O-])c1ccc(N/N=C/c2ccc([N+](=O)[O-])o2)c([N+](=O)[O-])c1,inactive: 4.87%
16,O=P1(c2ccccc2)N=C(c2ccccc2)NC(C(Cl)(Cl)Cl)=N1 (centres undefined),inactive: -4.77%
17,COC(=O)N(c1ccccc1)P1(=S)OCC(C)O1 (centres undefined),inactive: 14.8%
18,CCOP(=O)(OCC)C(=O)c1ccccc1I,inactive: -2.39%
19,O=C(Nc1cccc(F)c1)N(Cc1cccnc1)C1CCN(CCc2cccs2)CC1,inactive: 3.94%
20,CC(C)OP(=O)(OC(C)C)C(C)N (centres undefined),inactive: 8.86%
21,CN(C)c1ccc2c(c1)N1Cc3ccccc3C1=NP2(=O)c1ccccc1 (centres undefined),inactive: 7.76%
22,Cc1c([N+](=O)[O-])cc(C(=O)c2cc([N+](=O)[O-])c(C)c([N+](=O)[O-])c2)cc1[N+](=O)[O-],inactive: 2.77%
